{"source": "paper PMC5613062", "about": "(Investigational New Drugs, 2017)", "key": {"[1]": {"assay": "Pharmacokinetics alone and in combination, selumetinib + temsirolimus arm", "type": "in vivo, human"}, "[2]": {"assay": "Pharmacokinetics alone and in combination, selumetinib + erlotinib arm"}}, "data": [{"smiles": "Cn1cnc2c(F)c(Nc3ccc(Br)cc3Cl)c(C(=O)NOCCO)cc21", "note": "[Selumetinib]", "values": [{"measurement": "PK parameters when administered alone and in combination", "setting": "[1]", "result": "similar"}, {"measurement": "PK parameters when administered alone and in combination", "setting": "[2]", "result": "similar"}]}]}
